Here are results for two molecules from patent US20140135270A1, “MACROCYCLIC COMPOUNDS FOR INHIBITION OF INHIBITORS OF APOPTOSIS” (Ensemble Therapeutics Corp., priority 2012, published 2014).

Sequences of proteins named here, by UniProt entry; tags and fusion partners are left off. A change or cut given only in a name is not applied to a line headed by its entry. Residues count along the entry.
UniProt P98170, 241-356 limits assumed: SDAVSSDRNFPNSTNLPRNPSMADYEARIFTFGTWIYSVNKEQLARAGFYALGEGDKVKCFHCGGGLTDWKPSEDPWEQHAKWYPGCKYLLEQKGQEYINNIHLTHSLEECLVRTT
UniProt P98170, 125-356 C202A/C213G limits assumed: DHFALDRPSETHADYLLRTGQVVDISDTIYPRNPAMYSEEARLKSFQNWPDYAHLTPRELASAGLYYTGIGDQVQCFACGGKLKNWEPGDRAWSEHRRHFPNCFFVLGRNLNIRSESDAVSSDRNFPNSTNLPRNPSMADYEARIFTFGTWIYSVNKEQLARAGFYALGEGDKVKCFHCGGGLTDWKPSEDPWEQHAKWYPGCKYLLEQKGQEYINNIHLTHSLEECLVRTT

In assay [1] the target is His-BIR3 (241-356, XIAP) (Homo sapiens, UniProt P98170). Kind of assay: XIAP-BIR3/SMAC Homogeneous Time Resolved Fluorescence (HTRF) Assay. Particulars: read-out: BIR3 HTRF IC50, fluorescein labeled SMAC peptide. As for the experimental part:
B. XIAP-BIR3/SMAC Homogeneous Time Resolved Fluorescence (HTRF) Assay
Assays were performed in black, flat-bottom, 384-well plates. The final assay volume was 50 μL prepared from additions of His-BIR3 (241-356, XIAP), fluorescein labeled SMAC peptide, and test compounds in assay buffer consisting of 20 mM Sodium Phosphate, 1 mM EDTA, 50 mM NaCl, 50 μg/ml BSA, and 0.05% Pluronic F68. The reaction was incubated at room temperature for 60 minutes, following which 10 μl of mouse anti-6×His-terbium labeled Fab (Medarex, Cis-bio) was added to the reaction (40 μl) for an additional 30 minute incubation. The HTRF signal, ratio of fluorescence intensities at emission wavelengths for fluorescein acceptor (520 nm) and terbium donor (615 nm), the 520/615 ratio, generated by the reaction was then measured on the Envision Plate Reader Inhibition data were calculated from the 520/615 ratio generated by the no protein control reactions for 100% inhibition and vehicle-only reactions for 0% inhibition. The final concentration of reagents in the assay was 1 nM N-His-BIR3(241-356, XIAP), 5 nM fluorescein labeled SMAC peptide, 0.25 nM anti-His-Tb-Fab, and 0.1% DMSO. Dose response curves were generated to determine the concentration required for inhibiting 50% of the HTRF signal (IC50). Compounds were dissolved at 3 mM in dimethylsulfoxide (DMSO) and evaluated at eleven serially diluted concentrations. […]
In general terms: Time-resolved FRET reads energy transfer from a long-lived donor to a nearby acceptor.

The target of assay [2] is His-BIR2-3 (125-356, C202A/C213G, XIAP) (Homo sapiens, UniProt P98170, C202A/C213G). Put plainly: XIAP-BIR2-3 Dimeric SMAC Peptide Homogeneous Time Resolved Fluorescence (HTRF) Assay. Particulars: read-out: BIR2-3 HTRF IC50, fluorescein labeled dimeric SMAC peptide. As for the experimental part: D. XIAP-BIR2-3 Dimeric SMAC Peptide Homogeneous Time Resolved Fluorescence (HTRF) Assay
Assays were performed in black, flat-bottom, 384-well plates. The final assay volume was 50 μL prepared from additions of His-BIR2-3 (125-356, C202A/C213G, XIAP), fluorescein labeled dimeric SMAC peptide, and test compounds in assay buffer consisting of 20 mM Sodium Phosphate, 1 mM EDTA, 50 mM NaCl, 50 μg/ml BSA, and 0.05% Pluronic F68. The reaction was incubated at room temperature for 60 minutes, following which 101.1.1 of mouse anti-6×His-Tb IgG (Medarex, Cis-bio) was added to the reaction (40 μl) for an additional 30 minute incubation. The HTRF signal, ratio of fluorescence intensities at emission wavelengths for fluorescein acceptor (520 nm) and terbium donor (615 nm), the 520/615 ratio, generated by the reaction was then measured on the Envision Plate Reader. Inhibition data were calculated from the 520/615 ratio generated by the no protein control reactions for 100% inhibition and vehicle-only reactions for 0% inhibition. The final concentration of reagents in the assay was 0.5 nM N-His-BIR2-3(125-356, C202A/C213G, XIAP), 20 nM fluorescein labeled dimeric SMAC peptide, 0.25 nM anti-His-Tb-Fab, and 0.1% DMSO. […] Compounds were dissolved at 3 mM in dimethylsulfoxide (DMSO) and evaluated at eleven serially diluted concentrations. […]

The structures appear in SMILES notation. pIC50: −log10 of the molar value.

A word on the pIC50: it is −log10 of the IC50, conventionally taken in molar units. Consider `CN[C@@H](C)C(=O)N[C@H](C(=O)N1C[C@@H]2C[C@H]1C(=O)N[C@@H](Cc1ccc3ccccc3c1)C(=O)N[C@H](C(=O)O)Cc1ccc(cc1)OC/C=C/CO[C@H]1C[C@@H](C(=O)N[C@@H](Cc3ccc4ccccc4c3)C(=O)N[C@H](C(=O)NS(=O)(=O)C3CC3)Cc3ccc(cc3)OCc3cn2nn3)N(C(=O)[C@@H](NC(=O)[C@H](C)NC)C(C)(C)C)C1)C(C)(C)C`, for which the results for the pIC50 in assay [1] and in assay [2] were 8.44 and 9.15, respectively.

In the case of `CN[C@@H](C)C(=O)N[C@H](C(=O)N1C[C@H]2C/C=C/COc3ccc(cc3)C[C@@H](C(=O)NS(=O)(=O)c3ccccc3)NC(=O)[C@H](Cc3ccc4ccccc4c3)NC(=O)[C@@H]3C[C@@H](CN3C(=O)[C@@H](NC(=O)[C@H](C)NC)C(C)(C)C)n3cc(nn3)COc3ccc(cc3)C[C@@H](C(=O)O)NC(=O)[C@H](Cc3ccc4ccccc4c3)NC(=O)[C@@H]1C2)C(C)(C)C`, the results for the pIC50 in assay [1] and in assay [2] were 9.52 and 9.70, respectively.
